# Patent US5366975A, “Invertebrate phenylethanolamine transporter and the use thereof” (priority 1992, dated 1994)
# Test system: tobacco hornworms (Manducca sexta)
# Experiment: Antifeeding assay on sprayed tomato leaves
# Type: in vivo, Manduca sexta
smiles,measurement,setting,value
CCN(CCCl)Cc1ccccc1C,RANK ORDER ANTIFEEDING EFFECT IN MANDUCA,"Table 1, rank order of potency",GBR > COC = DMI = AMT > DSP = XYL =
same,% leaf remaining,"high (approximately 1-3%) concentrations, tomato leaves, M. sexta larvae",100%
